Results taken from patent US10149839B2, “Chemical compounds” (AstraZeneca AB, priority 2016, dated 2018).
pIC50: −log10 of the molar value.

By UniProt entry, the sequences of proteins in these tests, tags left out. Residues count along the entry.
UniProt P03372, 307-554: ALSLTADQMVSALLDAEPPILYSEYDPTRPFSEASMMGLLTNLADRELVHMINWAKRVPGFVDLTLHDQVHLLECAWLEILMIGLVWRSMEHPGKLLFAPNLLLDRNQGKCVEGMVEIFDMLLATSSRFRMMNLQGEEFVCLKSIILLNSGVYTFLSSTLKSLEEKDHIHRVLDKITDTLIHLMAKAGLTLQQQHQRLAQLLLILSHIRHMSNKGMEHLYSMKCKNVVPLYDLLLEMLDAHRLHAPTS

Each compound was assayed against recombinant human Estrogen Receptor alpha ligand binding domain (ER alpha-LBD (GST)) (Homo sapiens (Human), UniProt P03372) (assay: ERα binding assay (LanthaScreen TR-FRET competition)). Conditions: read-out: ER binding IC50 value, 50% reduction in tracer binding to ER alpha-LBD.

Row | pIC50 | SMILES
1 | 7.96 | C[C@@H]1Cc2c([nH]c3ccccc23)[C@@H](c2ncc(OCCNCCCF)cn2)N1CC(C)(C)F [Example 39, 3-fluoro-N-(2-((2-((1S,3R)-2-(2-fluoro-2-methylpropyl)-3-methyl-2,3,4,9-tetrahydro-1H-pyrido[3,4-b]indol-1-yl)pyrimidin-5-yl)oxy)ethyl)propan-1-amine]
2 | 9.00 | C[C@@H]1Cc2c([nH]c3ccccc23)[C@@H](c2cnc(NCCNCCCF)cn2)N1CC(F)F [Example 71, N1-(5-((1S,3R)-2-(2,2-difluoroethyl)-3-methyl-2,3,4,9-tetrahydro-1H-pyrido[3,4-b]indol-1-yl)pyrazin-2-yl)-N2-(3-fluoropropyl)ethane-1,2-diamine]
3 | 7.92 | C[C@@H]1Cc2c([nH]c3ccccc23)[C@@H](c2ccc(OCCNCCCF)cn2)N1CC1(F)CC1 [Example 31, 3-fluoro-N-(2-((6-((1S,3R)-2-((1-fluorocyclopropyl)methyl)-3-methyl-2,3,4,9-tetrahydro-1H-pyrido[3,4-b]indol-1-yl)pyridin-3-yl)oxy)ethyl)propan-1-amine]
4 | 8.85 | C[C@@H]1Cc2c([nH]c3ccccc23)[C@@H](c2c(F)cc(OCCNCCCF)cc2F)N1CC(C)(F)CO (single isomer, unassigned) [Example 17]
5 | 8.37 | COc1cc(NCCNCCCF)ccc1[C@@H]1c2[nH]c3ccccc3c2C[C@@H](C)N1CC(F)F [Example 61, N1-(4-((1R,3R)-2-(2,2-difluoroethyl)-3-methyl-2,3,4,9-tetrahydro-1H-pyrido[3,4-b]indol-1-yl)-3-methoxyphenyl)-N2-(3-fluoropropyl)ethane-1,2-diamine]
6 | 8.92 | COc1cc(OCCNCCCF)ncc1[C@@H]1c2[nH]c3ccccc3c2C[C@@H](C)N1CC(F)(F)CO [Example 64, 2,2-difluoro-3-((1R,3R)-1-(6-(2-((3-fluoropropyl)amino)ethoxy)-4-methoxypyridin-3-yl)-3-methyl-1,3,4,9-tetrahydro-2H-pyrido[3,4-b]indol-2-yl)propan-1-ol]
7 | 8.66 | C[C@@H]1Cc2c([nH]c3ccccc23)[C@@H](c2c(F)cc(OCC(CO)NCCCF)cc2F)N1CC(C)(C)F (single isomer, unassigned) [Example 52]
8 | 7.43 | C[C@@H]1Cc2c([nH]c3ccccc23)[C@@H](c2ccc(OCCNCCCF)cn2)N1CC1(F)COC1 [Example 32, 3-fluoro-N-(2-((6-((1S,3R)-2-((3-fluorooxetan-3-yl)methyl)-3-methyl-2,3,4,9-tetrahydro-1H-pyrido[3,4-b]indol-1-yl)pyridin-3-yl)oxy)ethyl)propan-1-amine]
9 | 8.05 | C[C@@H]1Cc2c([nH]c3ccccc23)[C@@H](c2ccc(OCCNCCCF)cc2C#N)N1CC1(F)CC1 [Example 29, 2-((1R,3R)-2-((1-fluorocyclopropyl)methyl)-3-methyl-2,3,4,9-tetrahydro-1H-pyrido[3,4-b]indol-1-yl)-5-(2-((3-fluoropropyl)amino)ethoxy)benzonitrile]
10 | 8.82 | COc1cc(OCCNCCCF)ncc1[C@@H]1c2[nH]c3ccccc3c2C[C@@H](C)N1CC(F)(F)F [Example 41, 3-Fluoro-N-(2-((4-methoxy-5-((1R,3R)-3-methyl-2-(2,2,2-trifluoroethyl)-2,3,4,9-tetrahydro-1H-pyrido[3,4-b]indol-1-yl)pyridin-2-yl)oxy)ethyl)propan-1-amine]
11 | 8.32 | C[C@@H]1Cc2c([nH]c3ccccc23)[C@@H](c2c(F)cc(NCCNCCCF)cc2F)N1CC1(F)CC1 [Example 9, N^1-(3,5-difluoro-4-((1R,3R)-2-((1-fluorocyclopropyl)methyl)-3-methyl-2,3,4,9-tetrahydro-1H-pyrido[3,4-b]indol-1-yl)phenyl)-N^2-(3-fluoropropyl)ethane-1,2-diamine]
12 | 8.12 | COc1nc(NCCNCCCF)ccc1[C@@H]1c2[nH]c3ccccc3c2C[C@@H](C)N1CC(C)(F)F [Example 78, N1-(5-((1R,3R)-2-(2,2-difluoropropyl)-3-methyl-2,3,4,9-tetrahydro-1H-pyrido[3,4-b]indol-1-yl)-6-methoxypyridin-2-yl)-N2-(3-fluoropropyl)ethane-1,2-diamine]
13 | 8.66 | C[C@@H]1Cc2c([nH]c3ccccc23)[C@@H](c2ccc(OCCNCCCF)cc2)N1CC(F)CF (single isomer, unassigned) [Example 25]
14 | 8.33 | COc1cc(OCCNCCCF)ccc1[C@@H]1c2[nH]c3ccccc3c2C[C@@H](C)N1CC1(F)CC1 [Example 11, 3-fluoro-N-(2-(4-((1R,3R)-2-((1-fluorocyclopropyl)methyl)-3-methyl-2,3,4,9-tetrahydro-1H-pyrido[3,4-b]indol-1-yl)-3-methoxyphenoxy)ethyl)propan-1-amine]
15 | 8.55 | C[C@@H]1Cc2c([nH]c3ccccc23)[C@@H](c2c(F)cc(OCC(CO)NCCCF)cc2F)N1CC(C)(C)F (single isomer, unassigned) [Example 53]
16 | 8.35 | COc1nc(OCCNCCCF)ccc1[C@@H]1c2[nH]c3ccccc3c2C[C@@H](C)N1CC(F)F [Example 75, N-(2-((5-((1R,3R)-2-(2,2-difluoroethyl)-3-methyl-2,3,4,9-tetrahydro-1H-pyrido[3,4-b]indol-1-yl)-6-methoxypyridin-2-yl)oxy)ethyl)-3-fluoropropan-1-amine]
17 | 8.68 | C[C@@H]1Cc2c([nH]c3ccccc23)[C@@H](c2c(F)cc(N(C)CCNCCCF)cc2F)N1CC(F)F [Example 49, N1-(4-((1R,3R)-2-(2,2-difluoroethyl)-3-methyl-2,3,4,9-tetrahydro-1H-pyrido[3,4-b]indol-1-yl)-3,5-difluorophenyl)-N2-(3-fluoropropyl)-N1-methylethane-1,2-diamine]
18 | 8.82 | C[C@@H]1Cc2c([nH]c3ccccc23)[C@@H](c2ccc(OCCNCCCF)cc2F)N1CC(F)F [Example 48, N-(2-(4-((1R,3R)-2-(2,2-difluoroethyl)-3-methyl-2,3,4,9-tetrahydro-1H-pyrido[3,4-b]indol-1-yl)-3-fluorophenoxy)ethyl)-3-fluoropropan-1-amine]
19 | 8.64 | COc1cc(OCCNCCCF)ncc1[C@@H]1c2[nH]c3ccccc3c2C[C@@H](C)N1CC(C)(C)F [Example 36, 3-fluoro-N-(2-((5-((1R,3R)-2-(2-fluoro-2-methylpropyl)-3-methyl-2,3,4,9-tetrahydro-1H-pyrido[3,4-b]indol-1-yl)-4-methoxypyridin-2-yl)oxy)ethyl)propan-1-amine]
20 | 8.74 | COc1cc(OCCNCCCF)cnc1[C@@H]1c2[nH]c3ccccc3c2C[C@@H](C)N1CC(C)(C)F [Example 35, 3-fluoro-N-(2-((6-((1S,3R)-2-(2-fluoro-2-methylpropyl)-3-methyl-2,3,4,9-tetrahydro-1H-pyrido[3,4-b]indol-1-yl)-5-methoxypyridin-3-yl)oxy)ethyl)propan-1-amine]
21 | 8.60 | COc1cc(NCCNCCCF)ncc1[C@@H]1c2[nH]c3ccccc3c2C[C@@H](C)N1CC(F)F [Example 67, N1-(5-((1R,3R)-2-(2,2-difluoroethyl)-3-methyl-2,3,4,9-tetrahydro-1H-pyrido[3,4-b]indol-1-yl)-4-methoxypyridin-2-yl)-N2-(3-fluoropropyl)ethane-1,2-diamine]
22 | 8.37 | CC(C)CN1[C@H](c2ccc(OCCNCCCF)cc2)c2[nH]c3ccccc3c2C[C@H]1C [Example 2, 3-fluoro-N-(2-(4-((1R,3R)-2-isobutyl-3-methyl-2,3,4,9-tetrahydro-1H-pyrido[3,4-b]indol-1-yl)phenoxy)ethyl)propan-1-amine]
23 | 8.80 | C[C@@H]1Cc2c([nH]c3ccccc23)[C@@H](c2c(F)cc(NCCNCCCF)cc2F)N1CC(F)F [Example 54, N1-(4-((1R,3R)-2-(2,2-difluoroethyl)-3-methyl-2,3,4,9-tetrahydro-1H-pyrido[3,4-b]indol-1-yl)-3,5-difluorophenyl)-N2-(3-fluoropropyl)ethane-1,2-diamine]
24 | 8.00 | COc1cc(NCCNCCCF)ccc1[C@@H]1c2[nH]c3ccccc3c2C[C@@H](C)N1CC(F)(F)CO [Example 59, 2,2-difluoro-3-((1R,3R)-1-(4-((2-((3-fluoropropyl)amino)ethyl)amino)-2-methoxyphenyl)-3-methyl-1,3,4,9-tetrahydro-2H-pyrido[3,4-b]indol-2-yl)propan-1-ol]
25 | 8.37 | C[C@@H]1Cc2c([nH]c3ccccc23)[C@@H](c2c(F)cc(N(C)CCNCCCF)cc2F)N1CC1(F)CC1 [Example 45, N1-(3,5-difluoro-4-((1R,3R)-2-((1-fluorocyclopropyl)methyl)-3-methyl-2,3,4,9-tetrahydro-1H-pyrido[3,4-b]indol-1-yl)phenyl)-N2-(3-fluoropropyl)-N1-methylethane-1,2-diamine]
26 | 8.51 | Cc1cc(OCCNCCCF)ncc1[C@@H]1c2[nH]c3ccccc3c2C[C@@H](C)N1CC(F)F [Example 63, N-(2-((5-((1R,3R)-2-(2,2-difluoroethyl)-3-methyl-2,3,4,9-tetrahydro-1H-pyrido[3,4-b]indol-1-yl)-4-methylpyridin-2-yl)oxy)ethyl)-3-fluoropropan-1-amine]
27 | 8.70 | COc1cc(OCCNCCCF)ccc1[C@@H]1c2[nH]c3ccccc3c2C[C@@H](C)N1CC(C)(F)F [Example 74, N-(2-(4-((1R,3R)-2-(2,2-difluoropropyl)-3-methyl-2,3,4,9-tetrahydro-1H-pyrido[3,4-b]indol-1-yl)-3-methoxyphenoxy)ethyl)-3-fluoropropan-1-amine]
28 | 8.49 | C[C@@H]1Cc2c([nH]c3ccccc23)[C@@H](c2ccc(OCCNCCCF)nc2)N1CC1(F)COC1 [Example 34, 3-fluoro-N-(2-((5-((1R,3R)-2-((3-fluorooxetan-3-yl)methyl)-3-methyl-2,3,4,9-tetrahydro-1H-pyrido[3,4-b]indol-1-yl)pyridin-2-yl)oxy)ethyl)propan-1-amine]
29 | 8.92 | C[C@@H]1Cc2c([nH]c3ccccc23)[C@@H](c2ccc(OCCNCCCF)cc2)N1C[C@H](F)CF (single isomer, unassigned) [Example 26]
